This data set in a line: Hydrophobic interaction chromatography (HIC), apparent hydrophobicity of conjugates. It counts as physicochemical. To be noted: Tosoh TSK-GEL BUTYL-NPR column, 25° C., gradient 0% B to 100% B in 10 min.

Turning to Human Albumin, the HIC retention time was found to be 2.5 min.
